Test system: Δ^8-THC antibody (AF9-14FR-4-2)
Assay: Binding of antigens to a control Δ^8-THC antibody, evaluated by measuring the A450 (FIG. 11)
Conditions: control Δ^8-THC antibody AF9-14FR-4-2

Δ^9-THC
binding to the Δ^8-THC antibody, in words, compared with the Δ^8-THC control antigen: very little

— patent publication US20060051824A1, “Tetrahydrocannabinoid antigens and method of use” (priority 2004, published 2006)
